Patent US9206232B2, “Organic compounds and their uses” (Novartis AG, priority 2009, dated 2015)

Sequences of proteins named here, by UniProt entry; tags and fusion partners are left off. A change or cut given only in a name is not applied to a line headed by its entry.
UniProt P26664: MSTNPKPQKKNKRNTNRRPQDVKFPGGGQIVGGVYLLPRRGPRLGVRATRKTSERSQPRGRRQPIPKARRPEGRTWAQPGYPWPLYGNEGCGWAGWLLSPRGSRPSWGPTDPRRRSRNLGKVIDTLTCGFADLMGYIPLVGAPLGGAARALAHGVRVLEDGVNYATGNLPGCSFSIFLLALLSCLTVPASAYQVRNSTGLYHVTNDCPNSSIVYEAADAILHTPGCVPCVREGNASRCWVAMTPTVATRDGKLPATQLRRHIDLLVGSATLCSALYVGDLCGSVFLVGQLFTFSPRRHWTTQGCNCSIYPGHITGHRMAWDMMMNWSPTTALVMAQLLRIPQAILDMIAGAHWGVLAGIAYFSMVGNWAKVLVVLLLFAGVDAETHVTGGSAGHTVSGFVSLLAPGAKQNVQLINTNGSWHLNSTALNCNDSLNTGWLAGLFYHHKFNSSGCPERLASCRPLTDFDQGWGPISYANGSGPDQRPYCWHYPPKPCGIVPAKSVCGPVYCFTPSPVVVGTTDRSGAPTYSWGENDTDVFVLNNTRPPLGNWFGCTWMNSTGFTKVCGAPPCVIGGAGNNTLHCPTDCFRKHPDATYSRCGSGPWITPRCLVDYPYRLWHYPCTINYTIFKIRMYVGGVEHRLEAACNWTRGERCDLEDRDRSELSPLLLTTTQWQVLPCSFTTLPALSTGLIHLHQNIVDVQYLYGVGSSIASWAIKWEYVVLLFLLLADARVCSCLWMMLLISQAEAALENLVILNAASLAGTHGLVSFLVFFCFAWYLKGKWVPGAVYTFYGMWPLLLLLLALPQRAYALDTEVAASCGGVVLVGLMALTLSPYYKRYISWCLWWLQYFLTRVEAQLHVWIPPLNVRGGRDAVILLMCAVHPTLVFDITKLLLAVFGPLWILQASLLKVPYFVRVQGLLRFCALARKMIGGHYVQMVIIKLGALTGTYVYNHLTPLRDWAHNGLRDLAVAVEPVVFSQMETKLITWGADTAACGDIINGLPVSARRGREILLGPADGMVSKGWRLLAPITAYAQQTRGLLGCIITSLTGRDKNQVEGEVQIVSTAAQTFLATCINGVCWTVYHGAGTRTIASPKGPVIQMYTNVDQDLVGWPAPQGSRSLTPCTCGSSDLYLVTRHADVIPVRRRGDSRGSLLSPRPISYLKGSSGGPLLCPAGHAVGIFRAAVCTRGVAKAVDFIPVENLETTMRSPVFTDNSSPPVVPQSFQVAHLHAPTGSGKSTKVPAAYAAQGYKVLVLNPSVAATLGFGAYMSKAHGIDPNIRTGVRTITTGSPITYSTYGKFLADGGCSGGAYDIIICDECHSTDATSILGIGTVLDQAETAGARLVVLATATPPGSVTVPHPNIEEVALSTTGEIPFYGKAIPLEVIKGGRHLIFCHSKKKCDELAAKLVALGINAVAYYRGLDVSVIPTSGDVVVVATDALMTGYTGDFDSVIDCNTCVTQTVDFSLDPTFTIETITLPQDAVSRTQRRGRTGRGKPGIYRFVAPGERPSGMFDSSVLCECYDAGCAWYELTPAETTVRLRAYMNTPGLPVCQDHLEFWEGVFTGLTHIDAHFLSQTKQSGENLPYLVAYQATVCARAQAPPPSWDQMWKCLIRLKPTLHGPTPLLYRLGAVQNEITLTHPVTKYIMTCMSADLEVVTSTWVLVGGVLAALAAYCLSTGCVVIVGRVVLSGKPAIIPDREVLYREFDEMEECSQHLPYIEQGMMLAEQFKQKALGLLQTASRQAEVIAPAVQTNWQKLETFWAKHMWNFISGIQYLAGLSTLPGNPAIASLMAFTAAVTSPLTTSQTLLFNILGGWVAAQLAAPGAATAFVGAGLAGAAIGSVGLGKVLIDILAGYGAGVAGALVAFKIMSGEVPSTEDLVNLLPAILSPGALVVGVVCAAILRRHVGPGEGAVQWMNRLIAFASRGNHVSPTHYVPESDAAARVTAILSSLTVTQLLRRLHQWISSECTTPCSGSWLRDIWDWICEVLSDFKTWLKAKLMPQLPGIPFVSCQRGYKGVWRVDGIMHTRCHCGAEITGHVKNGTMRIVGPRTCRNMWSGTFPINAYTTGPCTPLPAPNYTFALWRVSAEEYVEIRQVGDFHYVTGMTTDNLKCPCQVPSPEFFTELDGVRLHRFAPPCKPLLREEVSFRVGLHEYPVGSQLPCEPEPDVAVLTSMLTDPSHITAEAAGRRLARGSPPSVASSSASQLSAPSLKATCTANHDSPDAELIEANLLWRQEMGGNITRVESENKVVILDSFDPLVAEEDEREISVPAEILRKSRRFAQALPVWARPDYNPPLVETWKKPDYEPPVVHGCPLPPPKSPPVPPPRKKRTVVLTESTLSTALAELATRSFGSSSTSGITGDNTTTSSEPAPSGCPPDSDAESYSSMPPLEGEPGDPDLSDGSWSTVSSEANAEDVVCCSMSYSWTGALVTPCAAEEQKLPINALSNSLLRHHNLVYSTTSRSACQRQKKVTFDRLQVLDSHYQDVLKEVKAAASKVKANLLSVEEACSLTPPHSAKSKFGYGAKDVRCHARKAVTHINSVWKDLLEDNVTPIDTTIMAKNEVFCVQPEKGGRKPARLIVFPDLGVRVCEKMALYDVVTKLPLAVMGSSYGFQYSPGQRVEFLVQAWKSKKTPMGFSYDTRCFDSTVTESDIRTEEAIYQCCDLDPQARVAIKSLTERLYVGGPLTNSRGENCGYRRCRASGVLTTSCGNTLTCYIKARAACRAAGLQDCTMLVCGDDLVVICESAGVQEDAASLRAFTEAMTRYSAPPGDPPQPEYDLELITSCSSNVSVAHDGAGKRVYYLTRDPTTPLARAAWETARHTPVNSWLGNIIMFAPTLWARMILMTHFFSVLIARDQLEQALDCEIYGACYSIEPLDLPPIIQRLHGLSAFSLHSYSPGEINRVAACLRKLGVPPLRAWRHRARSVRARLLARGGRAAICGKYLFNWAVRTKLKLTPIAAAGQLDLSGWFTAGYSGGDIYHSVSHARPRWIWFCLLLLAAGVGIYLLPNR

Target: HCV NS3-4A serine protease (full-length NS3-4A protein) (Hepatitis C virus genotype 1a (isolate 1) (HCV), UniProt P26664)
Experiment: HCV NS3-4A protease assay
Assay type: biochemical, HCV genotype 1a
Details: genotype 1a strain HCV-1, fluorogenic peptide substrate, read-out: Protease assay Ex. 12 IC50
Method: The inhibitory activity of certain compounds of Table A against HCV NS3-4A serine protease is determined in a homogenous assay using the full-length NS3-4A protein (genotype 1a, strain HCV-1) and a commercially available internally-quenched fluorogenic peptide substrate as described by Taliani, M., et al. 1996 Anal. Biochem. 240:60-67, which is incorporated by reference in its entirety.

SMILES | IC50
CC[C@@H]1C[C@]1(NC(=O)[C@@H]1C[C@@]2(CN1C(=O)[C@@H](NC(=O)[C@@H](NC(=O)[C@@H]1CCCN1CC)C1CCCCC1)C(C)(C)C)C(C)(C)C21CCC1)C(=O)NS(=O)(=O)N(CC)CC [Compound 100] | 10 nM
C=C[C@@H]1C[C@]1(NC(=O)[C@@H]1C[C@@]2(CN1C(=O)[C@@H](NC(=O)[C@@H](NC(=O)[C@@H]1CCCN1C1CCCC1)C(C)(C)C)C(C)(C)C)C(C)(C)C21CCC1)C(=O)NS(=O)(=O)N1CCCC1 [Example 27, (5R,8S)-7-[(2S)-2-{[(2S)-2-({[(2S)-1-cyclopentylpyrrolidin-2-yl]carbonyl}amino)-3,3-dimethylbutanoyl]amino}-3,3-dimethylbutanoyl]-10,10-dimethyl-N-{(1R,2S)-1-[(pyrrolidin-1-ylsulfonyl)carbamoyl]-2-vinylcyclopropyl}-7-azadispiro[3.0.4.1]decane-8-carboxamide] | 10 nM
